In US11708423B2, “Chimeric engulfment receptor molecules and methods of use” (CERO THERAPEUTICS, INC., priority 2017, dated 2023):

Tests used:
[1] = system: A549 lung adenocarcinoma cells with ELM4-ALK fusion translocation; assay: Tim4-IgG1 Fc staining for phosphatidylserine exposure after ALK inhibitor treatment; format: cell-based; settings: 12 hours, increasing concentrations up to 5000 nM
[2] = system: HCC159 lung adenocarcinoma cells; assay: Tim4-IgG1 Fc staining for phosphatidylserine exposure after EGFR inhibitor treatment; format: cell-based; settings: 12 hours, increasing concentrations 50 nM and higher
From the text: HCC159 lung adenocarcinoma cells harbor an EGFR mutation and are sensitive to EGFR inhibition.

| Structure (SMILES) | surface staining with Tim4-IgG1 Fc fusion protein (phosphatidylserine exposure) [1] | surface staining with Tim4-IgG1 Fc fusion protein (phosphatidylserine exposure) [2] |
| --- | --- | --- |
| CCc1cc2c(cc1N1CCC(N3CCOCC3)CC1)C(C)(C)c1[nH]c3cc(C#N)ccc3c1C2=O [Alectinib] | enhance surface staining with Tim4-IgG1 Fc fusion protein |  |
| COc1cc2ncnc(Nc3ccc(F)c(Cl)c3)c2cc1OCCCN1CCOCC1 [Gefitinib] |  | enhanced surface staining with Tim4-IgG1 Fc fusion protein |
| C[C@@H](Oc1cc(-c2cnn(C3CCNCC3)c2)cnc1N)c1c(Cl)ccc(F)c1Cl [Crizotinib] | enhance surface staining with Tim4-IgG1 Fc fusion protein |  |
